Assay [1] deals with T1, human CB2 (hCB2) (Homo sapiens, UniProt P34972).
T1 construct: (cDNA clone) CNR0200000
Nature of the assay: 35S GTPγS binding assay, hCB2 agonist. It is filed as biochemical. As for the experimental part: (§1) cDNA expression clones for human CB1 (hCB1, Genbank Accession No. AY225225) and human CB2 (hCB2, Genbank Accession No. AY242132) expressed in vector pcDNA3.1+ were purchased from UMR cDNA Resource Center, Rolla, Mo. (Clone ID CNR01L000 for hCB1; CNR0200000 for hCB2).
Membranes were isolated from transfected cells as follows. Monolayers of cultured cells were washed twice with phosphate-buffered saline (PBS). […] Homogenates were centrifuged 10 minutes at 1000×g at 4° C. The supernatant was collected and was centrifuged for 1 hour at 40,000×g. The supernatant was then decanted and the resulting pellet was re-suspended in 20 mM HEPES, pH 7.4, 5 mM MgCl2, 1 mM EDTA, 10% sucrose with complete cocktail protease inhibitors. Protein concentration of membrane suspensions were measured by Bradford Protein Assay using bovine serum albumin as the standard (BioRad catalog #500-0006). Protein concentrations of membrane suspensions were adjusted with the final buffer in the range of 5 to 10 mg/mL and were stored at −80° C. until further use.
(§2) Functional assays which monitor G-protein coupled receptor or downstream cellular responses can be used to characterize potential CB1 receptor and/or CB2 receptor agonist or antagonist activities. Direct activation (or inhibition of activation) can be monitored using a GTPγS assay (membrane-based assay) or cAMP assay (whole cell-based assay). […]
Background: Binding of GTPγS marks nucleotide exchange on a G protein.

Protein sequences, listed by entry. Tags and fused reporters are not part of them.
UniProt P34972, whole entry: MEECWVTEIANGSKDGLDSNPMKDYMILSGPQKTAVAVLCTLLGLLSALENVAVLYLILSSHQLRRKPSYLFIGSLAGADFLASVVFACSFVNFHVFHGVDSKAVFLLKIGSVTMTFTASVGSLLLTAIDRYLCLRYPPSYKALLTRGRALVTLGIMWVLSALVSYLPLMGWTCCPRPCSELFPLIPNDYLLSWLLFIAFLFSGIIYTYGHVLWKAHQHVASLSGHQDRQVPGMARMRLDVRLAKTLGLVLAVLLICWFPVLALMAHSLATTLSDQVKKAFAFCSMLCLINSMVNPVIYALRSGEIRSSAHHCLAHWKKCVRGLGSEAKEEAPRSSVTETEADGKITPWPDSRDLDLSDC
UniProt P21554, whole entry: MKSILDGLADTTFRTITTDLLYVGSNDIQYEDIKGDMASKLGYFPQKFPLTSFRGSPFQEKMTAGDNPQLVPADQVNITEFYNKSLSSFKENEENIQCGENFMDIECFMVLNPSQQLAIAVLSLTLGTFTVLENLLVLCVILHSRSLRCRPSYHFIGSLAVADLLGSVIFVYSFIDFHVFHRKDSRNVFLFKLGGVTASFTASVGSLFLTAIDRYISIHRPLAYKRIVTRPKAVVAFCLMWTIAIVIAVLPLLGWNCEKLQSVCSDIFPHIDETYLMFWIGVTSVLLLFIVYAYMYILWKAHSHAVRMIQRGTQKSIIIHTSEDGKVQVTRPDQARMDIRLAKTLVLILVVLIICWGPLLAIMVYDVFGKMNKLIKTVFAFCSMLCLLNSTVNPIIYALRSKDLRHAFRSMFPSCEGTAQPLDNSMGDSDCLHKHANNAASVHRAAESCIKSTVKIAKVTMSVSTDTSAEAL

The target in assay [2] is T2, human CB2 receptors (Homo sapiens, UniProt P34972).
T2 construct: (cDNA clone) CNR0200000
Nature of the assay: cAMP assay in HEK-293 cells, hCB2 agonist. The format is cell-based. As for the experimental part: Functional assays which monitor G-protein coupled receptor or downstream cellular responses can be used to characterize potential CB1 receptor and/or CB2 receptor agonist or antagonist activities. Direct activation (or inhibition of activation) can be monitored using a GTPγS assay (membrane-based assay) or cAMP assay (whole cell-based assay).
cAMP assays were performed in HEK-293 cells stably expressing human CB1 or CB2 receptors. […] Cells suspensions were centrifuged and the cells were washed once with PBS, were centrifuged again, and the cells were re-suspended in HBSS (Hank's Balanced Salt Solution, Cellgro, Cat #21-022-CV) solution containing 10 mM HEPES and 0.1% fatty acid free BSA (Sigma, Cat #A0281). Cell suspensions were prepared at 1,500,000 cells per ml. Stock solutions of test substances (10 mM) in DMSO were diluted to 1 mM using 30% DMSO as diluent. Test substances of solutions (1 mM) were further diluted down to 3× of final assay concentrations in the above HBSS buffer containing 0.1% BSA in the presence of 90 uM forskolin (Sigma Cat#F6886). […] Cells were lysed and cAMP concentration was measured using DiscoveRx −XS+ cAMP assay kit (DiscoveRx Corporation Ltd., Fremont, Calif., USA, Cat #90-0075-03), following the manufacturer's protocol. […]
Background: Changes in cAMP serve as a functional read-out for many G protein-coupled receptors.

For assay [3], the target named is T3, human CB1 (hCB1) (Homo sapiens, UniProt P21554).
T3 construct: (cDNA clone) CNR01L000
As to the kind of experiment: 35S GTPγS binding assay, hCB1 agonist. The format is biochemical.
Text: as §1
Stable, HEK-293-derived cell lines that recombinantly express hCBI or hCB2 were established. In brief, the clone hCB1 (CNR IL) or hCB2 (CNR2) was transfected into human embryonic kidney cells (HEK-293) using Lipofectamine 2000 (Gibco, Cat#11668-019) according to the manufacturer's protocol. Transfected clones were isolated by single colony purification and clones were screened for receptor expression using a whole cell, ^3H—CP 55,940 radioligand binding assay. […]
Membranes were isolated from transfected cells as follows. […] Protein concentration of membrane suspensions were measured by Bradford Protein Assay using bovine serum albumin as the standard (BioRad catalog #500-0006). […]
as §2

These results are taken from patent US20130029970A1 (priority 2009, published 2013).

As usually defined, the EC50 is the midpoint of the concentration-response curve. Read a high EC50 as a less potent agent. Regarding `COc1ccc(C(=O)c2cc3ccn(CCN4CCOCC4)c3s2)cc1` [Compound 160, (4-methoxyphenyl)(6-(2-morpholinoethyl)-6H-thieno[2,3-b]pyrrol-2-yl)methanone], the EC50 in assay [1] was 1 to 10 µM; in assay [2], 0.1 to 1 µM; in assay [3] it was more than 10 µM.
